From patent publication US20180008587A1, “THIOHYDANTOIN ANDROGEN RECEPTOR ANTAGONISTS FOR THE TREATMENT OF CANCER” (Jaressen Pharmaceutica NV, priority 2016, published 2018) come the findings set out here.

Protein sequences, listed by entry. Tags and fused reporters are not part of them. Residues count along the entry.
UniProt P10275, 560-920 limits assumed: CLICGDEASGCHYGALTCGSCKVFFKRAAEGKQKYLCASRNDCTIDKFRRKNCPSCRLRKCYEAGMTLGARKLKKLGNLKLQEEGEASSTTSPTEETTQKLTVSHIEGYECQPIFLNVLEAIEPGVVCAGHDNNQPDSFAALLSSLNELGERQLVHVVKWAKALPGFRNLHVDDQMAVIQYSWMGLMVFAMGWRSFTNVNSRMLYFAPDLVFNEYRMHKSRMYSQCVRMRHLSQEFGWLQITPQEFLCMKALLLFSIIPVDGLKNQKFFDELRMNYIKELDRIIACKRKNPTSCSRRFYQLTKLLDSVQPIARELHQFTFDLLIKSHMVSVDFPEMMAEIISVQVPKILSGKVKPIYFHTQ
UniProt P10275, whole entry L702H: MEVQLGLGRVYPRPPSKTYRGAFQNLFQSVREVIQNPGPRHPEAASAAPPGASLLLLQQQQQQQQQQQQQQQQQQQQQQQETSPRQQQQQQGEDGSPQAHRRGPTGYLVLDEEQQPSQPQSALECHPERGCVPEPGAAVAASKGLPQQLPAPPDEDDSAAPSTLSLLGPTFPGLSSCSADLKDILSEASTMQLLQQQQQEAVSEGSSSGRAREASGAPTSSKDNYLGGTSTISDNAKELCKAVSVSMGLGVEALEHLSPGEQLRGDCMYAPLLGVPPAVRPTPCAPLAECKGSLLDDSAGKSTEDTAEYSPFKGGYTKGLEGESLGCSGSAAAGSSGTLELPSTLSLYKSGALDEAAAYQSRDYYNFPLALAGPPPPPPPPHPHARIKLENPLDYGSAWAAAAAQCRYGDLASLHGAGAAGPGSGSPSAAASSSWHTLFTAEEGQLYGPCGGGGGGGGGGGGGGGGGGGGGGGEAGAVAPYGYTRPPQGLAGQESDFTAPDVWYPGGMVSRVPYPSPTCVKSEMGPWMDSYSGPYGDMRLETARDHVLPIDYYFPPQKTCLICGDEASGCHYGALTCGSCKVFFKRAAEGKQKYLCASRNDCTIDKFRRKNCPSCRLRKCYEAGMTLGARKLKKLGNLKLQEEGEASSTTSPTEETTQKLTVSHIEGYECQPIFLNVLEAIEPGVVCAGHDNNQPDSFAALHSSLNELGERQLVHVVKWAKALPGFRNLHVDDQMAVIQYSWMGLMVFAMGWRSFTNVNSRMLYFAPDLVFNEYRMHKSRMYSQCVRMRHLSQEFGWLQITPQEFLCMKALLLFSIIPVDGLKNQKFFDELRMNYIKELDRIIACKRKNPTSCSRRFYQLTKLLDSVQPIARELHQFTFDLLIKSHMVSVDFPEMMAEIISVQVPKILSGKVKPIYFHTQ
UniProt P10275, whole entry W742C: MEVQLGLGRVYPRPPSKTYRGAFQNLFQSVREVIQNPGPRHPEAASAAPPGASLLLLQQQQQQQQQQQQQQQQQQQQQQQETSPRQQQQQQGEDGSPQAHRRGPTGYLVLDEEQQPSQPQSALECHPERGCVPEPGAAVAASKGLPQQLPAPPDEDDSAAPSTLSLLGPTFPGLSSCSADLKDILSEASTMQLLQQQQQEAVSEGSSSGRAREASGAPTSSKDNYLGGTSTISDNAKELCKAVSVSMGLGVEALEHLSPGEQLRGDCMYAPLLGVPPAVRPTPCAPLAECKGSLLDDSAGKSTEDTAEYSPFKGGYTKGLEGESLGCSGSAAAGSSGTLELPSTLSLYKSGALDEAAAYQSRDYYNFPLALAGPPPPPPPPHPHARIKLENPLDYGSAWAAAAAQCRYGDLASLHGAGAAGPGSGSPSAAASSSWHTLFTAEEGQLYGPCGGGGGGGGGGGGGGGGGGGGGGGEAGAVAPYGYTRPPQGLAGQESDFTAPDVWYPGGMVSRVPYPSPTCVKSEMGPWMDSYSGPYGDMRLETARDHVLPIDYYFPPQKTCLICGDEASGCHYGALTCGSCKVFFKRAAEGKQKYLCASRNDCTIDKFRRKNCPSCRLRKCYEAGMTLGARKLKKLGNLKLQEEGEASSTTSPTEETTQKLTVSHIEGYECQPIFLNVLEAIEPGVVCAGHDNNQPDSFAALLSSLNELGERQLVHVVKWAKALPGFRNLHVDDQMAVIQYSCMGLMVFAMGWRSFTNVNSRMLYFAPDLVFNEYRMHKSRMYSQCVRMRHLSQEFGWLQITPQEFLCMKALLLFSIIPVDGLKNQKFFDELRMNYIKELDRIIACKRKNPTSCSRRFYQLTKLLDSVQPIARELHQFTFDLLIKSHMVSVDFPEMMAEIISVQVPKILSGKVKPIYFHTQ
UniProt P10275, whole entry T878A: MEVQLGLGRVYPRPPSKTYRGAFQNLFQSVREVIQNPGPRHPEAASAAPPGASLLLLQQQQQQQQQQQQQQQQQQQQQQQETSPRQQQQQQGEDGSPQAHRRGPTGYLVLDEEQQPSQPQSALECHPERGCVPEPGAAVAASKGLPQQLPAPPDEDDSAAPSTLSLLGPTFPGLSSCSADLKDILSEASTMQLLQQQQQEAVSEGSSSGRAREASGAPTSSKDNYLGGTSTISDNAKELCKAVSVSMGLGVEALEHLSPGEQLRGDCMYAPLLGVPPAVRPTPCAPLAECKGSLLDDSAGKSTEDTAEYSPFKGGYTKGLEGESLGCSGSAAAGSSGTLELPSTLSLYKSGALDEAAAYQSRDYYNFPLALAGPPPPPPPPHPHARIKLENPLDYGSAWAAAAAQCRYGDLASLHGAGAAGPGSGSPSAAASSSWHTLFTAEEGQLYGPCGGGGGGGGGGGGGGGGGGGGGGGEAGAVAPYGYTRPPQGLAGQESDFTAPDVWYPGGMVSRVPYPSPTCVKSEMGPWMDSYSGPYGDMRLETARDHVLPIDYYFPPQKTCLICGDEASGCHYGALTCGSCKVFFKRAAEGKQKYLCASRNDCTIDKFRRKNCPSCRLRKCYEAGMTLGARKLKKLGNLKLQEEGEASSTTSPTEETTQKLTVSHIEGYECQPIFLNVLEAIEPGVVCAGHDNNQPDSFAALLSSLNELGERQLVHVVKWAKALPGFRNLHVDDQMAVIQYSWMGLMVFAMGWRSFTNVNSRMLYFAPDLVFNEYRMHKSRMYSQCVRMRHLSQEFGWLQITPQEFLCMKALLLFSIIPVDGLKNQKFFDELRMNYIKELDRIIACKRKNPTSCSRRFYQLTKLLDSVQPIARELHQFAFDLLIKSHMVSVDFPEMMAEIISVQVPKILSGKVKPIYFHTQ
UniProt P10275, whole entry H875Y: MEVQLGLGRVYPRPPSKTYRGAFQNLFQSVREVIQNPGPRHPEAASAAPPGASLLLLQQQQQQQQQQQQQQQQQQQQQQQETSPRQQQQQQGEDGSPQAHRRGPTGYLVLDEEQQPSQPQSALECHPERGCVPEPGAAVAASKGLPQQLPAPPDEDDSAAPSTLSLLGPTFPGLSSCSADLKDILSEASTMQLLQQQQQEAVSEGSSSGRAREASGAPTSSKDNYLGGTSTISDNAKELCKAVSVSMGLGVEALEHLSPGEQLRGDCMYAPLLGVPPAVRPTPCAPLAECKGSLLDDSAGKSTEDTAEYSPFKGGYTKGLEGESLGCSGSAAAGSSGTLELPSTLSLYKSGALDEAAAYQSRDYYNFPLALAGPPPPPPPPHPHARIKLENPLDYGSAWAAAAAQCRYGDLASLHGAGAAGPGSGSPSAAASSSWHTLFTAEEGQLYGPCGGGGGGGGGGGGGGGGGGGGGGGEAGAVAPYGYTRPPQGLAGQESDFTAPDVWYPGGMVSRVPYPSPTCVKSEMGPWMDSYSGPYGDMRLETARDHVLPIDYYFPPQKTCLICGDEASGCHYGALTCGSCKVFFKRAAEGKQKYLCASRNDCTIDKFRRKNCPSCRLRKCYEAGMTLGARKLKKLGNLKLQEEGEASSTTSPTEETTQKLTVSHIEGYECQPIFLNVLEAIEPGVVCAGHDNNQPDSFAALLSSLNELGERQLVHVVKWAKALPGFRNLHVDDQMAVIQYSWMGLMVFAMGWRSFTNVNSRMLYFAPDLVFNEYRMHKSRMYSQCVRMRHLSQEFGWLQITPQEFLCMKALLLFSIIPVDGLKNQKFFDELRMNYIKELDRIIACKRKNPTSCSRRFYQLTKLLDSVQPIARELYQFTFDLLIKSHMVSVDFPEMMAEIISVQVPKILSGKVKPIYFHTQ

The structures appear in SMILES notation. Read-outs that look alike come from different tables or passages of the source. Bounds are passed on as bounds.

Holding throughout (format): cell-based
The target of experiment [1] is T1, wild-type Androgen Receptor (AR-wt) (Homo sapiens, UniProt P10275).
T1 construct: expressed in transfected cells; host or cells: LNCaP (LNCaP AR (cs))
The experiment can be described thus: LNCaP-AR-wt AG reporter assay (ARE firefly luciferase, agonist mode). The settings on record: for Emax: read-out: LNCaP-AR-wt AG MAX % Stim. In general terms: A reporter such as luciferase makes a cellular process visible.

Experiment [2] concerns the target T1, wild-type Androgen Receptor (AR-wt). Nature of the experiment: LNCaP-AR-wt ANT reporter assay (ARE firefly luciferase, antagonist mode). The settings on record: for Emax: read-out: LNCaP-AR-wt ANT MAX % Inh.
The next experiment concerns the target AR-VP16 (Homo sapiens, UniProt P10275). The experiment can be described thus: AR-VP16 DNA binding assay, HepG2. As for the experimental part:
HepG2 cells were maintained in EMEM supplemented with 10% FBS. One day before transfection, the media was changed to EMEM with 10% CSS. […] Cells were then trypsinized, counted and resuspended at 500,000 cells/mL. For agonist mode, the compounds were serially diluted and 50 μL of the compound was added per well. 50 μL of the cells were added to each well and incubated for 48 hours. […] The plates were then assayed using SteadyGlo and read on the Envision. Percent Stimulation and Inhibition were determined and analyzed using GraphPad Prism.

Another experiment concerns the target T2, AR L701H (Homo sapiens, UniProt P10275, L702H).
T2 construct: expressed in transfected cells; host or cells: HepG2
The experiment can be described thus: Luciferase transcriptional reporter assay, mutant AR, HepG2, antagonist mode. The settings on record: HepG2, 90 pM R1881, 48 hours; * denotes incomplete inhibition (otherwise 100%); read-out: Antagonism; IC50, AR construct L701H. As for the experimental part:
(§1) HepG2 cells were maintained in EMEM supplemented with 10% FBS. One day before transfection, the media was changed to EMEM with 10% CSS. T-150 flasks were transiently transfected using 120 μL Lipofectamine 2000 (Life Technologies), 30 μg mutant cDNA (expression vector)—mutant cDNA tested were L701H, T877A, W741C and H874Y—and 40 μg 4×ARE-Luciferase (reporter vector) in OptiMEM and the flasks were incubated overnight. Cells were then trypsinized, counted and resuspended at 500,000 cells/mL. For agonist mode, the compounds of Formula (I) are serially diluted and 50 μL of the compound added per well. 50 μL of the cells are added to each well and incubated for 48 hours. For antagonist mode, a final concentration of 90 pM R1881 was added to the diluted compounds and incubated for 48 hours. The plates were then assayed using SteadyGlo and read on the Envision. Percent Stimulation and Inhibition is determined and analyzed using GraphPad Prism.
(§2) The antagonistic (IC50) values for each of the AR cDNA used in the reporter assays are summarized. NT is not tested * denotes incomplete inhibition (otherwise 100%). All values are calculated relative to the activity of R1881 induced androgen receptor activity (n≧3).

A further experiment addresses T3, AR W741C (Homo sapiens, UniProt P10275, W742C).
T3 construct: expressed in transfected cells; host or cells: HepG2
The experiment is described as above. The settings on record: HepG2, 90 pM R1881, 48 hours; * denotes incomplete inhibition (otherwise 100%); read-out: Antagonism; IC50, AR construct W741C. On the procedure: as §1, §2

For the next experiment, the target named is T4, AR T877A (Homo sapiens, UniProt P10275, T878A).
T4 construct: expressed in transfected cells; host or cells: HepG2
The description is as above. The settings on record: HepG2, 90 pM R1881, 48 hours; * denotes incomplete inhibition (otherwise 100%); read-out: Antagonism; IC50, AR construct T877A. As for the experimental part: as §1, §2

The target of a further experiment is T5, AR H874Y (Homo sapiens, UniProt P10275, H875Y).
T5 construct: expressed in transfected cells; host or cells: HepG2
The description is as above. As to conditions: HepG2, 90 pM R1881, 48 hours; * denotes incomplete inhibition (otherwise 100%); read-out: Antagonism; IC50, AR construct H874Y. As for the experimental part: as §1, §2

For the compound `N#Cc1ncc(N2C(=O)C3(CCC3)N(c3ccc(N4CCNCC4)cc3)C2=S)cc1C(F)(F)F` [Cpd 8, 5-[5-oxo-8-(4-piperazin-1-ylphenyl)-7-thioxo-6,8-diazaspiro[3.4]octan-6-yl]-3-(trifluoromethyl)pyridine-2-carbonitrile], the EC50 in experiment [1] was more than 15.1 µM. For the same compound, the Emax in experiment [1] turned out to be 0.2%; in experiment [2], 98.8%. In addition, the IC50 in experiment [2] is 2.69 µM; on AR-VP16, 0.121 µM.
Regarding `CN1CCC(Oc2ccc(N3C(=S)N(c4cnc(C#N)c(C(F)(F)F)c4)C(=O)C34CCC4)cc2)CC1` [Cpd 85, 5-[8-[4-[(1-methyl-4-piperidyl)oxy]phenyl]-5-oxo-7-thioxo-6,8-diazaspiro[3.4]octan-6-yl]-3-(trifluoromethyl)pyridine-2-carbonitrile], the IC50 is 8.86 µM at AR L701H; 14 µM on AR W741C; 11.2 µM on AR T877A; 9.48 µM on AR H874Y; 0.186 µM in experiment [2] (antagonist mode, 400 pM R-1881 challenge, −Log10(IC50 [Molar]), read-out: LNCaP-AR-wt ANT pIC50 (converted)); 0.96 µM on AR-VP16 (HepG2, antagonist mode, 90 pM R1881, 48 hours, read-out: IC50 VP16 WT). Also, the EC50 in experiment [1] (agonist mode, −Log10(EC50 [Molar]), read-out: LNCaP-AR-wt AG pEC50 (converted)) is more than 15.1 µM.
As for `N#Cc1ncc(N2C(=O)C3(CCC3)N(c3ccc(O)cc3)C2=S)cc1C(F)(F)F` [Cpd 77, 5-[8-(4-hydroxyphenyl)-5-oxo-7-thioxo-6,8-diazaspiro[3.4]octan-6-yl]-3-(trifluoromethyl)pyridine-2-carbonitrile], in experiment [1], the EC50 was more than 15.1 µM and the Emax worked out at 0.8%. In experiment [2], the IC50 was 0.204 µM and the Emax amounted to 99.5%.
